Laboratory results: ChEMBL document CHEMBL5344475, “Indole-containing pharmaceuticals: targets, pharmacological activities, and SAR studies” (RSC Med Chem, 2024)

Chains of the proteins cited; added tags and fusions are not shown.
UniProt P28222, whole entry: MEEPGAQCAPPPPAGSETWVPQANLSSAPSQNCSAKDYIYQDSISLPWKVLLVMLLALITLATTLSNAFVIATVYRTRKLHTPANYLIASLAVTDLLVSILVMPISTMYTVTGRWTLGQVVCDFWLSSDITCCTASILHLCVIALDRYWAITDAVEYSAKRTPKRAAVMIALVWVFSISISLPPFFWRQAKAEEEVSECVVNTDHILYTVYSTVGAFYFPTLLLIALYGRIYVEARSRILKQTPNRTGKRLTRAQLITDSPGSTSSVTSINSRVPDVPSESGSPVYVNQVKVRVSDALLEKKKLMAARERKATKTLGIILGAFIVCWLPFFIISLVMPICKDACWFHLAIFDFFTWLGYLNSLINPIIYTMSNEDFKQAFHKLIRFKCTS

Molecular target: 5-hydroxytryptamine receptor 1B (Homo sapiens, UniProt P28222)
Experiment: Binding affinity to 5-HT1B receptor (unknown origin) assessed as inhibition constant

Ki: 4.4 nM
SMILES: CN[C@@H]1CCc2[nH]c3ccc(C(N)=O)cc3c2C1 [FROVATRIPTAN]
